Laboratory results: patent US6417174B1, “Inhibitors of β-lactamases and uses therefor” (Northwestern University, priority 1997, dated 2002)

The chains behind the UniProt entries cited, without tags or fusion partners. Residues count along the entry.
UniProt P00811, 20-377: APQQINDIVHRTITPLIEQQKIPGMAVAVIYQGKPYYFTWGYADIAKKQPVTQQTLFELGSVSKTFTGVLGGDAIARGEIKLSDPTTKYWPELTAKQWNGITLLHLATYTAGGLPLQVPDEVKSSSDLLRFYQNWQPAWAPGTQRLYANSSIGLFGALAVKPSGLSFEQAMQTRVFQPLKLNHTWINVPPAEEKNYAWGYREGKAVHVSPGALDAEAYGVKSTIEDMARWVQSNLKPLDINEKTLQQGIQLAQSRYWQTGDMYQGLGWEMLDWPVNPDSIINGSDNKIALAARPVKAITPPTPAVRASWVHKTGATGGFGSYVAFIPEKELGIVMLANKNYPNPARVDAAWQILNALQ

Target: AmpC β-lactamase from E. coli (Escherichia coli, UniProt P00811)
Experiment: biochemical

OB(O)c1cccs1 [TH2B, thiophene-2-boronic acid]
Ki: 3.3 µM
